Measured values taken from ChEMBL document CHEMBL4622831, “Anti-diabetic drugs recent approaches and advancements” (Bioorg Med Chem, 2020).

By UniProt entry, the sequences of proteins in these tests, tags left out.
UniProt P27487, whole entry, looked up: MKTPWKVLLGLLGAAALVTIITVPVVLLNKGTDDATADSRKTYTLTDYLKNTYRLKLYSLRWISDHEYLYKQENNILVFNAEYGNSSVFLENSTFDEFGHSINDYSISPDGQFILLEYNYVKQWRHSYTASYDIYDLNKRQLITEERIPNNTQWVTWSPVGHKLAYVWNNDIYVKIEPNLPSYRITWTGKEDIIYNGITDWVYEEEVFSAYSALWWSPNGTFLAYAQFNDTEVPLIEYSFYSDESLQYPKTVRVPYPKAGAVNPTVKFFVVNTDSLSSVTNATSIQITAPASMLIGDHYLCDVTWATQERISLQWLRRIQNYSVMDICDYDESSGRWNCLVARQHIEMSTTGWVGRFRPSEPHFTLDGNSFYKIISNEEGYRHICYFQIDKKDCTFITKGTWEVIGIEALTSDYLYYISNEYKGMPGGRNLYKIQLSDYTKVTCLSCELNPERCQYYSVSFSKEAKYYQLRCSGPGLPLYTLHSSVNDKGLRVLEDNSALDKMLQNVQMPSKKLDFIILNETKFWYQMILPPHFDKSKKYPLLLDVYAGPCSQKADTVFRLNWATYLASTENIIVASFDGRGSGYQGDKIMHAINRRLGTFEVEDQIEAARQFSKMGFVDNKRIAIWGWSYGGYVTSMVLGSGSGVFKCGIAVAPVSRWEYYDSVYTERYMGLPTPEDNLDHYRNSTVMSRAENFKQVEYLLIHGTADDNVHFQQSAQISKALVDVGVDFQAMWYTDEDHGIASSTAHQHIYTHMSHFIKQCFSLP

Molecular target: Dipeptidyl peptidase 4 (Homo sapiens, UniProt P27487)
Details: 100 uM

Structure (SMILES): Brc1nc2n(n1)CC(c1cc3ccccc3o1)=NN2
- inhibition: 53%
